Laboratory results from paper PMC4738175 (Cancer letters, 2015).

System: phosphorylated ERK1/2
Assay: Immunohistochemical staining of phosphorylated ERK1/2 in PK03 tumors
Conditions: 10mg/kg, n = 3 mice/group, vs PK03 control

Structure (SMILES): CNC(=O)c1cc(Oc2ccc(NC(=O)Nc3ccc(Cl)c(C(F)(F)F)c3)cc2)ccn1 [Sorafenib]
- staining intensity of phosphorylated ERK1/2: 63 ± 21.2
